Measured values published in PubChem BioAssay AID590 (National Center for Advancing Translational Sciences (NCATS), 2007).
Only a part is listed here, and it is no random draw. Some results for these compounds are left out of this collection, so the calls shown say nothing about other tests. Records with an inconclusive call do not appear. Calls of active or inactive are those of the source. Cut-off read from the data, not from the text of the source: active = max dye-equivalent concentration above about 10 nM; inconclusive = mostly about 1.1 nM to 9.6 nM; inactive = weaker than that.

experiment: qHTS Assay for Spectroscopic Profiling in A350 Spectral Region; settings: Compound autofluorescence, 340/450 nm, Alexa 350 dye-equivalents
Source text: NIH Molecular Libraries Screening Centers Network [MLSCN]
NIH Chemical Genomics Center [NCGC]
Occasionally, the artifactual effect may originate from the compounds own spectral or other biophysical properties which generally tend to track its assay concentration. Pre-screening/profiling the library with respect to the compounds spectral properties should help one exclude false positives early on. While the most informative fluorescent profiling data set is obtained by performing a full excitation and emission scan of each well by using a monochromator-based plate reader, such an approach is practical only on a very limited scale as scanning each well requires long time. An alternative approach, applied here, is to perform plate reader scans using selected excitation and emission wavelength pairs to generate a multidimensional relational database that correlates compound concentration and the respective relative fluorescence intensity at a given wavelength set. A standard curve of Alexa 350 (A 350) present on each plate as six-point concentration series, was used to compute a normalized fluorescence response, termed dye-equivalent concentration, for each compound at each concentration.
NCGC Assay Protocol Summary:
100 mM Tris buffer, pH 8.0
The wells in columns 1 through 4 of a Kalypsys polypropylene 1536-well compound plate were filled with standard solutions of fluorophore corresponding to the spectral region of interest. Solutions of A 350 were placed in the following wells: I1, J1: 3 mM, I2, J2: 300 uM, I3, J3: 30 uM, I4, J4: zero (DMSO), K1, L1: 3 uM, K2, L2: […], K3, L3: 300 nM, K4, L4: zero (DMSO).
Six uL of buffer were dispensed to 1536-well Greiner black plates. Compounds and dye standards (23 nL) were transferred via Kalypsys PinTool. The plates were incubated for 15 min at room temperature, and then read on ViewLux (Perkin-Elmer) High-throughput CCD imager using 340 nm and 450 nm excitation and emission filter set.
Keywords: NIH Roadmap, MLSCN, MLI, MLSMR, qHTS, NCGC, A350, A-350, Fluorescent Profiling.

Structure (SMILES) | outcome
CN1CCC[C@H](OC(=O)[C@](O)(c2ccccc2)C2CCCC2)C1 | inactive
O=C(OC1CN2CCC1CC2)C(CO)(c1ccccc1)c1ccccc1 (centres undefined) | inactive
CN1CC[C@H](OC(=O)[C@](O)(c2ccccc2)C2CCCC2)C1 | inactive
C=C(C)C#C[C@@](O)(C(=O)OC1CCN(C)CC1)c1ccccc1 | inactive
